Measured values: US10919885B2, “Compounds and uses thereof” (Yumanity Therapeutics, Inc., priority 2018, dated 2021)

The chains behind the UniProt entries cited, without tags or fusion partners. Where a name states a change or a piece, a line headed by the entry shows the natural chain unless it says otherwise.
UniProt O00767: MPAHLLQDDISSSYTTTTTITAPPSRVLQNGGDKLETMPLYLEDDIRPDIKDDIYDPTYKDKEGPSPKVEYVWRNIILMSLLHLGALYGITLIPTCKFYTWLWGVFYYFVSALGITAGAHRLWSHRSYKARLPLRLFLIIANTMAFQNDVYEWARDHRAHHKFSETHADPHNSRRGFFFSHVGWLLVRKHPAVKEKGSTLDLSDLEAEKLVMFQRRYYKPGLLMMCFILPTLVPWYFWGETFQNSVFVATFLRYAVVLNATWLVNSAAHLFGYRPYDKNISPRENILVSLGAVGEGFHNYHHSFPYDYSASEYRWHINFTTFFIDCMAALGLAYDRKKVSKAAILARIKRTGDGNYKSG
UniProt Q86SK9: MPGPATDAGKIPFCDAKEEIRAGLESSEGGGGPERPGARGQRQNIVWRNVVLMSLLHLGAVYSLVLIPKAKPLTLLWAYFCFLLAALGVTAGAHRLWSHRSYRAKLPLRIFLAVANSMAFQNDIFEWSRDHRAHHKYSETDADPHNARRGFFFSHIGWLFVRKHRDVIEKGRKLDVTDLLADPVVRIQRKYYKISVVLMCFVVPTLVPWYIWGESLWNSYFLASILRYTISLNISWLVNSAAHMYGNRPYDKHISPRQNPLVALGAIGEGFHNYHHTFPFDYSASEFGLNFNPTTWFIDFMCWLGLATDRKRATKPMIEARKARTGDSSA

Tests used:
human SCD1 = human SCD1 (Homo sapiens (Human), UniProt O00767); test: Yeast growth assay, strain expressing human SCD1 as the sole desaturase (reduced growth as surrogate for SCD inhibition); format: cell-based; conditions: yeast with OLE1 deleted expressing human SCD1 from a plasmid; growth read as OD600 after 40 h at 30° C.; top drug concentration 33.3 μM
Procedure: (§1) Strains expressing SCD1 or SCD5 as the sole desaturase, the human SCD1 and SCD5 genes were used to evaluate inhibition of SCD1/SCD5 using reduced growth as a surrogate for SCD inhibition. These yeast strains express human SCD1 or SCD5 from a plasmid harbored in a strain in which the yeast OLE1 gene is deleted.
(§2) All compound profiling experiments were performed using the same basic protocol. Yeast were cultured using standard techniques in complete synthetic media lacking uracil and containing yeast nitrogen base supplemented with 2% (w/v) glucose (SD-Ura) Starter cultures were inoculated in 3 mL SD-Ura media containing 0.01% tween and 0.2 mM palmitoleic and oleic acid. Cultures were incubated overnight in a 30° C. shaker incubator (225 rpm). Saturated morning cultures were centrifuged, washed in SD-Ura media lacking TWEEN-20 and fatty acids, and then diluted 1:20 in fresh SD-Ura media also lacking TWEEN-20 and fatty acids.
(§3) Compound administration was performed in two separate steps. First, 15 μL of SD-Ura was dispensed into clear 384-well assay plates using a MULTIDROP™ Combi reagent dispenser. […]
(§4) After yeast delivery, assay plates were incubated under humidified conditions at 30° C. for 40 h. Yeast growth was monitored by reading the OD600 of each well using a microplate reader (Perkin Elmer EnVision™).

human SCD5 = human SCD5 (Homo sapiens (Human), UniProt Q86SK9); test: Yeast growth assay, strain expressing human SCD5 as the sole desaturase (reduced growth as surrogate for SCD inhibition); format: cell-based; conditions: yeast with OLE1 deleted expressing human SCD5 from a plasmid; growth read as OD600 after 40 h at 30° C.; top drug concentration 33.3 μM
Procedure: as §1, §2, §3, §4

IC50 (human SCD1)	IC50 (human SCD5)	Structure (SMILES)
6 µM	–	O=C(Nc1cnn(Cc2cnccc2C(F)(F)F)c1)c1cc(-c2ccncn2)on1 [Compound 200, 5-(pyrimidin-4-yl)-N-(1-((4-(trifluoromethyl)pyridin-3-yl)methyl)-1H-pyrazol-4-yl)isoxazole-3-carboxamide]
–	3.9 µM	C=C(C)c1cc(C(=O)Nc2cnn(Cc3cnccc3C(F)(F)F)c2)no1 [Compound 166, 5-(prop-1-en-2-yl)-N-(1-((4-(trifluoromethyl)pyridin-3-yl)methyl)-1H-pyrazol-4-yl)isoxazole-3-carboxamide]
–	1.4 µM	CC(C)c1cc(C(=O)Nc2cnn(Cc3cnccc3C(F)(F)F)c2)no1 [Compound 161, 5-isopropyl-N-(1-((4-(trifluoromethyl)pyridin-3-yl)methyl)-1H-pyrazol-4-yl)isoxazole-3-carboxamide]
